The record followed here is patent US8772480B2, “Inhibitors of PI3 kinase and/or mTOR” (priority 2009, dated 2014).

The chains behind the UniProt entries cited, without tags or fusion partners.
UniProt P42336, whole entry: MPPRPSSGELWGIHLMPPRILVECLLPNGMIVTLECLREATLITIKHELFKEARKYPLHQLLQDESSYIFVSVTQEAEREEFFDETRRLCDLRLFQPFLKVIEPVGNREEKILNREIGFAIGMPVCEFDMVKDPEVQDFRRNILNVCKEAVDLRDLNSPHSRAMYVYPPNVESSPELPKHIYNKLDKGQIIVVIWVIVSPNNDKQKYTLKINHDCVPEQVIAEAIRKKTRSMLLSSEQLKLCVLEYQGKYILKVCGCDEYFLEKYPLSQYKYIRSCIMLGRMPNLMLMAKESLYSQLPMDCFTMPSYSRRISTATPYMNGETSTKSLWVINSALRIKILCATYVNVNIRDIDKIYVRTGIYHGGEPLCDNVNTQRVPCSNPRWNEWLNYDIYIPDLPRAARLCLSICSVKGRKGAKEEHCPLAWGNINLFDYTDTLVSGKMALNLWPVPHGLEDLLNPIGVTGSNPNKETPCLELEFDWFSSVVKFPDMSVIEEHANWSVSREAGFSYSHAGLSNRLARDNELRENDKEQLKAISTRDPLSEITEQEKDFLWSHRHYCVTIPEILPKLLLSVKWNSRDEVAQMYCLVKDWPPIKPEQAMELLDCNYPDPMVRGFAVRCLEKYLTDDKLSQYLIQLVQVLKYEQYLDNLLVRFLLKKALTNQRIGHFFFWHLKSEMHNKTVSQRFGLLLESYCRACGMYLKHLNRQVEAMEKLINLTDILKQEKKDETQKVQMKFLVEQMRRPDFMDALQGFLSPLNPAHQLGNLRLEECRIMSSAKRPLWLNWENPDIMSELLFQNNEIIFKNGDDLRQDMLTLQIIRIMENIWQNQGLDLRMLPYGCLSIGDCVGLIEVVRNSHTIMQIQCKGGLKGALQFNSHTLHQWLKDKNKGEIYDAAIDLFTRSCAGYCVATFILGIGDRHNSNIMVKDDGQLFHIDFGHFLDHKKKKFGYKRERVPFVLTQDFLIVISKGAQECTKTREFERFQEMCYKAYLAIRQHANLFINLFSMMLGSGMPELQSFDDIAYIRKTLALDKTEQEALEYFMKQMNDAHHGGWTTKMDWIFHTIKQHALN

As a reminder, the Ki is a dissociation constant, usually derived from enzyme kinetics or from competition with a known ligand.

In the assay the target is PI3Kα (Homo sapiens (Human), UniProt P42336). The settings on record: read-out: PI3Kα AlphaScreen ® Ki.
On to `COc1ccc(Nc2ncc(CNc3cccnc3)cc2-c2nc(C)nc3[nH]cnc23)cn1` [Example 79, N-(6-methoxypyridin-3-yl)-3-(2-methyl-9H-purin-6-yl)-5-((pyridin-3-ylamino)methyl)pyridin-2-amine], for which the Ki turned out to be 9 nM.
Regarding `COc1ncc(Nc2ncc(C(C)N3CCN(S(C)(=O)=O)CC3)cc2-c2nc(C)nc(N)n2)cc1F` (stereo not shown) [Example 143, 4-(2-(5-fluoro-6-methoxypyridin-3-ylamino)-5-(1-(4-(methylsulfonyl)piperazin-1-yl)ethyl)pyridin-3-yl)-6-methyl-1,3,5-triazin-2-amine], the Ki was 2 nM.
Then `COc1ncc(Nc2ncc([C@H](C)N3CCN(S(C)(=O)=O)CC3)cc2-c2nc(C)nc(N)n2)cc1F` [Example 147, (S)-4-(2-(5-Fluoro-6-Methoxypyridin-3-Ylamino)-5-(1-(4-(Methylsulfonyl)Piperazin-1-yl)Ethyl)Pyridin-3-yl)-6-Methyl-1,3,5-Triazin-2-Amine], with 4 nM; and `COc1ncc(Nc2ncc([C@@H](C)N3CCN(S(C)(=O)=O)CC3)cc2-c2nc(C)nc(N)n2)cc1F` [Example 148, (R)-4-(2-(5-Fluoro-6-Methoxypyridin-3-Ylamino)-5-(1-(4-(Methylsulfonyl)Piperazin-1-yl)Ethyl)Pyridin-3-yl)-6-Methyl-1,3,5-Triazin-2-Amine], with 4 nM.
